From ChEMBL document CHEMBL1151538, “Rearrangement of unsymmetrical azetidinone disulfides to 2-(heterocyclylthiomethyl)penams, a synthetic approach to new -lactamase inhibitors” (Bioorg Med Chem Lett, 1993) come the findings set out here.

By UniProt entry, the sequences of proteins in these tests, tags left out. Where a name states a change or a piece, a line headed by the entry shows the natural chain unless it says otherwise.
UniProt P13661: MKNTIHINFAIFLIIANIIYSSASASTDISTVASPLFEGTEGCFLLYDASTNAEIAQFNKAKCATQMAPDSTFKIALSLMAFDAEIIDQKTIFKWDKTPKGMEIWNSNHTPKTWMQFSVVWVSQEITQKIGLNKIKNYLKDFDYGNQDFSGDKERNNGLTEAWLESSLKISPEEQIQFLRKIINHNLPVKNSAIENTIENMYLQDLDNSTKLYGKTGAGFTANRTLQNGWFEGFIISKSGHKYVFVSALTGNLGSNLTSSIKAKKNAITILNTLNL

The term IC50 denotes the concentration needed to halve the response being measured. A low value points to inhibition by little substance.

The target in the assay is Beta-lactamase OXA-1 (Escherichia coli, UniProt P13661). The assay is described as follows: Inhibitory activity against Escherichia coli HA209 Class-V OXA-1 type beta-lactamase enzyme.

Each structure is given as a SMILES string.

In the case of `C[C@@]1(CSc2nc3ccccc3o2)S[C@@H]2[C@H](Br)C(=O)N2[C@H]1C(=O)O`, half-maximal inhibition (IC50) was put at 2330 nM.
